Substitutions are numbered along the chain they refer to.
How the values were obtained:
Format in all cases: cell-based
[1] = biological target: T1, C5aR1-WT (Homo sapiens, UniProt P21730); experiment: C5aR1-Gi-mediated cAMP inhibition assay (GloSensor); conditions: HEK293, 2.5 μM forskolin, ligand 30 min RT, mean±SEM, n=6
T1 construct: expressed in transfected cells; host or cells: HEK293
T1 sequence (P21730 1-350): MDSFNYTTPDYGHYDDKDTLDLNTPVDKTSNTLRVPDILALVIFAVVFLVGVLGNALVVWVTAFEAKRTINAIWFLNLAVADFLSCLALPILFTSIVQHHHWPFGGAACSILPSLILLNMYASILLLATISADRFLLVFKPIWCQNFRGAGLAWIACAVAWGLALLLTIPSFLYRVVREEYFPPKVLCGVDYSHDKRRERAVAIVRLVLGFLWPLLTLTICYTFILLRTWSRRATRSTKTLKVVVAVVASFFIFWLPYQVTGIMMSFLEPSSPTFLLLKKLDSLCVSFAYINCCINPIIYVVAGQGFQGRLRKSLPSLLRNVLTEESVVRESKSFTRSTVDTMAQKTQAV
Procedure: The cDNA sequences of wild-type C5aR1 were cloned into the expression vector pcDNA3.1(+) with a HA signal sequence followed by a Flag tag at the N-terminus. Mutants used in our study were generated by using the Q5 site-Directed Mutagenesis kit (NEB). All the constructs were verified by sanger sequencing. The constructs were transiently expressed in HEK293 cells using PEI transfection reagent (YEASEN, 40816ES02) according to the manufacturer’s instruction. Cells were harvested 48 h post transfection. Cell surface expression levels of receptors were measured by enzyme-linked immunosorbent assay (ELISA).
To measure cAMP inhibition effects on the forskolin-induced cAMP accumulation of C5aR1, the GloSensor cAMP assay (Promega) was performed as described in the previous study.[59] Briefly, Flag-tagged wild-type human C5aR1 was co-expressed with GloSensor plasmid in HEK293 cells in 6-well culture plates. After at least 24 h, transfected cells were harvested and suspended in assay buffer Hank’s Balanced Salt Solution (HBSS) containing 10 mM HEPES, pH 7.4, with an additional 3% v/v dilution of the D-Luciferin-Potassium Salt (YEASEN, 40902ES01). […] Finally, the luminescence signals were counted on the Synergy H1 microplate reader (BioTek). […]

[2] = biological target: T2, C5aR1 Y2586.51A (Homo sapiens, UniProt P21730, Y258A); experiment: BRET β-arrestin 2 recruitment; conditions: HEK293, BRET, mean±SEM, n=3, read-out: EC50, β-arrestin2 recruitment
T2 construct: expressed in transfected cells; host or cells: HEK293
T2 sequence (P21730 1-350 Y258A): T1 sequence (P21730 1-350) with Y258A
Procedure: (§1) The C5a-mediated β-arrestin 2 recruitment to C5aR1 and C5aR2, respectively, was measured using BRET-based assay as previously described.[36],[61],[62] Briefly, HEK293 cells were transiently transfected with C5aR1-Nluc and mVenus-β-arrestin 2 or C5aR2-mVenus and Nluc-β-arrestin 2 constructs using PEI transfection reagent (YEASEN, 40816ES02) according to the manufacturer’s instruction. At 24 h post transfection, the cells were gently detached and seeded (100,000/well) onto 96-well white plates in DMEM containing 5% FBS. On the next day, cells were washed once with Phosphate Buffered Saline (PBS) and incubated in HBSS containing 20 mM HEPES, pH 7.4, with coelenterazine h (5 μM, YEASEN, 40906ES02) for 1 h (37 °C, 5% CO2). The baseline BRET light emissions (460–485 nm and 520–545 nm) were monitored by the Synergy H1 microplate reader (BioTek). After the incubation of different diluted concentrations of agonist with or without antagonist for 10 min, the second BRET light emissions were measured and the ligand-induced BRET ratio was calculated by subtracting the acceptor (mVenus, 520–545 nm) over donor (Nluc, 460–485 nm) emission ratio of the vehicle-treated wells from that of the ligand-treated wells. We carried out the nonlinear regression (curve fit) dose-response function in GraphPad Prism 7 to yield the values of Emax and EC50.

[3] = biological target: T3, C5aR1 D191ECL2A (Homo sapiens, UniProt P21730, D191A); experiment: BRET β-arrestin 2 recruitment; conditions: HEK293, BRET, mean±SEM, n=3, read-out: EC50, β-arrestin2 recruitment
T3 construct: expressed in transfected cells; host or cells: HEK293
T3 sequence (P21730 1-350 D191A): T1 sequence (P21730 1-350) with D191A
Procedure: as §1

[4] = biological target: T4, C5aR1 R1754.64A (Homo sapiens, UniProt P21730, R175A); experiment: BRET β-arrestin 2 recruitment; conditions: HEK293, BRET, mean±SEM, n=3, read-out: EC50, β-arrestin2 recruitment
T4 construct: expressed in transfected cells; host or cells: HEK293
T4 sequence (P21730 1-350 R175A): T1 sequence (P21730 1-350) with R175A
Procedure: as §1

B1: C5a: 74-amino-acid complement fragment, endogenous agonist; recombinant human C5a, free cysteine replaced by arginine (protein)
chain: TLQKKIEEIAAKYKHSVVKKCCYDGARVNNDETCEQRAARISLGPRCIKAFTECCVVASQLRANISHKDMQLGR
modifications: three intramolecular disulfides; non-glycosylated (E. coli); Trx-His6 tag removed with TEV
- EC50 [1]: 0.00187 ± 0.00043 µM
- EC50 [2]: 0.0551 ± 0.00807 µM
- EC50 [3]: 0.0245 ± 0.00526 µM
- EC50 [4]: 0.0478 ± 0.00915 µM

Source: PMC9937529, “Mechanism of activation and biased signaling in complement receptor C5aR1” (Cell Research, 2023)
